The source of these data is patent publication US20090098115A1, “Cell lines and animal models of HER2 expressing tumors” (priority 2006, published 2009).

“Also recorded” adds a separate entry of the source.

The subject of one test is BT-474EEI cells. As to the kind of experiment: In vitro cell proliferation assay (Cell Titer-Glo), BT-474EEI. Format: cell-based, human. The settings on record: 0.0001 ug/ml to 10 ug/ml, 72 h (FIGS. 7B, 8B). On the procedure: (§1) BT-474 and BT-474EE1 cells were plated in 96-well microtiter plates and incubated overnight at 37° in a humidified atmosphere of 5% CO2. Cells were treated with a range of concentrations of trastuzumab, trastuzumab-MCC-DM1, or Tarceva from 0.0001 ug/ml to 10 ug/ml. After incubation for 72 h, Cell Titer-Glo reagent (Promega, Madison, Wis.) was added to the wells, and after a 10-min incubation at room temperature, the luminescent signal was recorded.
(Cellular ATP, detected with luciferase, serves as a proxy for viable cell number.)

For the next test, the system named is BT-474 cells. As to the kind of experiment: In vitro cell proliferation assay (Cell Titer-Glo), BT-474. The test is classed as cell-based, human. The settings on record: BT-474, 0.0001 ug/ml to 10 ug/ml, 72 h (FIGS. 7A, 8A). The protocol: as §1
In test [1] the test system is BT-474EEI xenograft tumors. As to the kind of experiment: BT-474EEI xenograft trastuzumab efficacy study. The test is classed as in vivo, beige nude mice. As to conditions: BT-474EEI in mammary fat pad, no estrogen; trastuzumab 10 mg/kg IV once a week for 4 weeks; conjugate on days 0, 7, 26 and 49 (FIG. 4). On the procedure:
Cells were grown in DMEM: Ham's F-12 medium containing 10% FBS and 2 mM 1-glutamine. They were detached from the flasks with 5 mM EDTA in 150 mM NaCl, washed and resuspended in culture medium. The cell suspension is mixed 50:50 with cold phenol red-free matrigel (Becton Dickinson) for a final cell number of 10^8 per ml. Mice were injected with 0.2 ml for 20 million cells per mouse inoculum.
Female Beige nude mice (Harlan Sprague Dawley, Madison, Wis.) 6-8 weeks of age were injected with 2×10^7 BT-474EEI cells into the mammary fat pad in a volume of 0.2 ml. Tumors were allowed to grow and were then measured in two dimensions using a caliper. Tumor volume was expressed in mm^3 using the formula: V=(a×b^2)×0.5, where a and b are the long and the short diameters of the tumor, respectively. Tumors were measured and mice were grouped into groups of 9 mice with a mean tumor volume between 100-200 mm 3. Trastuzumab at 10 mg/kg and a Vehicle Control were injected IV once a week for 4 weeks (Day 0, 7, 14, 24). Trastuzumab-MC-vc-PAB-MMAF antibody drug conjugate was injected on days 0, 7, 26 and 49. In the trastuzumab-MC-vc-PAB-MMA Fantibody conjugate, MC-vc-PAB is a linker, which stands for Maleiamide Caproyl, val-cit, paraminobenzoic acid (the PAB self immolates and is released). […] Tumors were measured twice a week throughout the experiment. […]

In test [2] the test system is HER2-overexpressing metastatic breast cancers. As to conditions: patients with extensive prior anti-cancer therapy; cited from earlier work.
Test [3] concerns BT-474JB xenograft tumors. As to the kind of experiment: BT-474JB xenograft tumor response to naked trastuzumab. The test is classed as in vivo, mice. As to conditions: BT-474JB xenografts with exogenous estrogen pellets, different dose levels (FIG. 3). The source says: The BT-474JB cells were obtained from Jose Baselga (Vall d'Hebron University Hospital, Barcelona, Spain.). The JB cells were derived by obtaining a BT-474 xenograft tumor and re-establishing the cells in culture. […] A fast-growing tumor was obtained to put back into culture. These cells can then be grown up for further xenograft studies.
BT-474JB cells form xenograft tumors in the presence of exogenous estrogen pellets.

For Trastuzumab-MCC-DM1, the cell proliferation entry in the test on BT-474EEI cells is recorded as “substantially decreased in a dose-dependent manner”; with BT-474 cells, “substantially reduced in a dose-dependent manner”.
As to trastuzumab-MC-vc-PAB-MMAF, the “growth of xenograft tumors / sensitivity to treatment” value in test [1] is recorded as “significantly inhibited; also recorded: significant anti-tumor inhibition”.
With “trastuzumab: recombinant humanized version of the murine HER2 antibody 4D5”, the cell proliferation result with BT-474EEI cells is recorded as “little change”; in the test on BT-474 cells, “substantially reduced in a dose-dependent manner”. Further, the clinical activity result in test [2] is given as “clinically active”. Further, the “response of xenograft tumors to treatment” value in test [3] is recorded as “extremely sensitive”. Further, the “growth of xenograft tumors / sensitivity to treatment” value in test [1] was “substantially less sensitive; also recorded: does not show activity”.
